Experimental data: US12312347B2, “Azaindole derivative and use thereof as FGFR and C-Met inhibitor” (Wuxi Life Fountain Biotech Co., Ltd, priority 2018, dated 2025)

Sequences of proteins named here, by UniProt entry; tags and fusion partners are left off. Residues count along the entry.
UniProt P22455, 22-802 limits assumed: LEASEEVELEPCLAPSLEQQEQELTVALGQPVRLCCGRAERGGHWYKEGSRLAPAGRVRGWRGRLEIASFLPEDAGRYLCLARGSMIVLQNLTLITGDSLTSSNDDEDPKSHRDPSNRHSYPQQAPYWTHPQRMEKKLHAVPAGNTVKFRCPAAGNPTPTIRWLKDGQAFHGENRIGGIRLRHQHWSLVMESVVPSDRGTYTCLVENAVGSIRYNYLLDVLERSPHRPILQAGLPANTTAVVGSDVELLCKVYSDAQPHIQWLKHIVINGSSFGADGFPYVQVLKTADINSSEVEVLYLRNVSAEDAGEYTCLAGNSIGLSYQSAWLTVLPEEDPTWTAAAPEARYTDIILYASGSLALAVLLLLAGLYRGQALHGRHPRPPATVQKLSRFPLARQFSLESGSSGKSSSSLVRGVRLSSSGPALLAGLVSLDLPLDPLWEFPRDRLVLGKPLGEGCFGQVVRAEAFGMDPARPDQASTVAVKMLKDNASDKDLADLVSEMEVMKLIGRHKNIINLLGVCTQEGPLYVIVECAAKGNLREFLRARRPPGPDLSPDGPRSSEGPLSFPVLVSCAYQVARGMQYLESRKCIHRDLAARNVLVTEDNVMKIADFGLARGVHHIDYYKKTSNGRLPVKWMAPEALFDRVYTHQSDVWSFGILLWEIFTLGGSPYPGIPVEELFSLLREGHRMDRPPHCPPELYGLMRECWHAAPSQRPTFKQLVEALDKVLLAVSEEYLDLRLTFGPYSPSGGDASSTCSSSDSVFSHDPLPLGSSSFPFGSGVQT
UniProt P11362, 22-822 limits assumed: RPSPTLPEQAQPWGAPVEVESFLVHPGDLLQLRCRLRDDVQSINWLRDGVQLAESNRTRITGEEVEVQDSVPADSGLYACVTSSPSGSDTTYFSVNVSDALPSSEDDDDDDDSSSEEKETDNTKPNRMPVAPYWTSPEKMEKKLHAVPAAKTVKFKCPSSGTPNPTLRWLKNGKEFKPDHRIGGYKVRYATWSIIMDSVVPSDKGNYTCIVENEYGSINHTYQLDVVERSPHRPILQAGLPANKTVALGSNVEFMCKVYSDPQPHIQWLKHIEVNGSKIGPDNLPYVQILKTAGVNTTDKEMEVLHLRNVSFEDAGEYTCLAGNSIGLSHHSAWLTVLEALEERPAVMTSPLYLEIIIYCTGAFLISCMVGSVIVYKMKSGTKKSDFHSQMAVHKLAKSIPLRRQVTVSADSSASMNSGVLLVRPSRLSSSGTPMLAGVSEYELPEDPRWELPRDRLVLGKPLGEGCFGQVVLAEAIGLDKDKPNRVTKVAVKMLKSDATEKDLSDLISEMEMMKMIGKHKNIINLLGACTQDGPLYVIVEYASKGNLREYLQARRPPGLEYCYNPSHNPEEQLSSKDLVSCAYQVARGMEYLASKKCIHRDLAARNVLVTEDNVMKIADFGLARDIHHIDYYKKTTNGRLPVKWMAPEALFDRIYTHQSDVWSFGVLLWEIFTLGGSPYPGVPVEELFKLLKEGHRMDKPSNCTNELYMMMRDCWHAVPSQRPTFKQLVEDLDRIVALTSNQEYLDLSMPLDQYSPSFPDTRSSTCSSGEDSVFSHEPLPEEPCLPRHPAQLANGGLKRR
UniProt P08581, 25-1390 limits assumed: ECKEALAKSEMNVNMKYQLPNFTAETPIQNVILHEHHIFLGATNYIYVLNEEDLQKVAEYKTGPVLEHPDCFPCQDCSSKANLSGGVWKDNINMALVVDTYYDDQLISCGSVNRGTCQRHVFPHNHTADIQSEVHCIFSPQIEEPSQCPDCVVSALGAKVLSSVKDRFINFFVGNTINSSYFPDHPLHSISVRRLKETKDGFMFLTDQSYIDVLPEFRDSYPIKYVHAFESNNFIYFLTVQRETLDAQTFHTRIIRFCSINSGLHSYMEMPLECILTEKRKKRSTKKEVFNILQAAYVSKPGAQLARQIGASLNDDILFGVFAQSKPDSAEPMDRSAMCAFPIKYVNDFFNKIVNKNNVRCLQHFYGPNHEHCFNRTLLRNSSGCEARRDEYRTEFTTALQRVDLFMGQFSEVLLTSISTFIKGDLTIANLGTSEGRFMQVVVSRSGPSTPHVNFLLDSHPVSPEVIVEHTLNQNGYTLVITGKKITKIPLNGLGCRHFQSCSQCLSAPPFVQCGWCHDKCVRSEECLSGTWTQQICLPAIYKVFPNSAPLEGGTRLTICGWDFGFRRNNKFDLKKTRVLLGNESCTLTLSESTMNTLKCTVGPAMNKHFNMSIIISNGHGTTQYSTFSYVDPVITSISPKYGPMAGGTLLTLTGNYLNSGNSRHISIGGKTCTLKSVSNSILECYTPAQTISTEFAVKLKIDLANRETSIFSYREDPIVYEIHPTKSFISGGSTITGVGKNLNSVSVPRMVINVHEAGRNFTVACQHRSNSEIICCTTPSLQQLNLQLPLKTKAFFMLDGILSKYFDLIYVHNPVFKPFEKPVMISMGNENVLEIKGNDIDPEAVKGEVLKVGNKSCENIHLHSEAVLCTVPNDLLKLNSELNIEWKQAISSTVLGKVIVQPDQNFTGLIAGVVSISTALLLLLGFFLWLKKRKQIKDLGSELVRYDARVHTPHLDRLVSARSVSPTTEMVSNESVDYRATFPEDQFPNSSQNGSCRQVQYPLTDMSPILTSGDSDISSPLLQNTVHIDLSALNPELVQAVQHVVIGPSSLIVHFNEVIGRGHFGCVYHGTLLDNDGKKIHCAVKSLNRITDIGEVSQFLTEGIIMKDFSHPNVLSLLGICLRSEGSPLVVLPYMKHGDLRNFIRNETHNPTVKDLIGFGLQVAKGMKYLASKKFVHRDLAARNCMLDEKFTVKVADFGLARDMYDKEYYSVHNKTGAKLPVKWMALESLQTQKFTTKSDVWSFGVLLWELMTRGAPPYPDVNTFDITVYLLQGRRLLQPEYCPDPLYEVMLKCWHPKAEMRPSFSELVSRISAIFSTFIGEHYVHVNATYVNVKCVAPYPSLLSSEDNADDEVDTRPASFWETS

Key:
human FGFR4 = human FGFR4 (Homo sapiens, UniProt P22455); test: 33P isotope-labeled kinase activity test, FGFR4; conditions: read-out: IC50 FGFR4, ATP 100 μM
human FGFR1 = human FGFR1 (Homo sapiens, UniProt P11362); test: 33P isotope-labeled kinase activity test, FGFR1; format: biochemical; conditions: read-out: IC50 FGFR1, ATP 5 μM
human c-Met = human c-Met (Homo sapiens, UniProt P08581); test: 33P isotope-labeled kinase activity test, c-Met; conditions: read-out: IC50 c-Met, ATP 10 μM

For COc1cc(OC)c(F)c(Cc2c[nH]c3ncc(-c4cnn(C5CCNCC5)c4C)cc23)c1F, the IC50 (human FGFR4) was 20.8 nM, the IC50 (human FGFR1) was 0.55 nM and the IC50 (human c-Met) was 7.4 nM.
COc1cc(OC)c(F)c(Cc2c[nH]c3ncc(-c4cn(CCO)nc4C)cc23)c1F gave an IC50 (human FGFR4; tested form: HCl) of 25.2 nM, an IC50 (human FGFR1; tested form: HCl) of 1.2 nM and an IC50 (human c-Met; tested form: HCl) of 58.9 nM.

Where two headings read alike, the source gives them in different places.
